Legend:
[1] = tested on: E. coli; experiment: MIC, broth dilution; type: cell-based, Escherichia coli KCTC 1682; conditions: 16 h, MH media
Description: (§1) Escherichia coli KCTC 1682 was obtained from the Korean Collection for Type Cultures (KCTC) (Jeongeup-si, Korea), Acinetobacter baumannii KCCM 40203, Pseudomonas aeruginosa KCCM 11328 from the Korea Culture Center of Microorganisms (KCCM) (Seoul, Korea). Klebsiella pneumoniae NCCP 16054 were obtained from the National Culture Collection for Pathogens (NCCP) (Osong, Korea). Additionally, two carbapenem-resistant E. coli (CREC E1 and E2), 11 carbapenem-resistant A. baumannii (CRAB C0–C10) and two carbapenem-resistant K. pneumoniae (CRKP K1 and K2) were isolated from the patients, who presented symptoms and signs of infection at Korea University Anam Hospital (Seoul, Korea) (IRB registration no. 2020AN0157, 4 March 2021). CRAB C0–C10 have the OXA-23 gene with carbapenem-resistance.
(§2) The minimum inhibitory concentrations (MIC) were determined using broth dilution method. Briefly, all the mentioned bacterial strains were grown overnight at 37 °C by Muller–Hinton (MH) media. […] After 16 h incubation, the bacterial growth was read at 600 nm using a SpectraMAX microplate reader (Molecular Devices, San Jose, CA, USA).

[2] = tested on: P. aeruginosa; experiment: MIC, broth dilution; type: cell-based, Pseudomonas aeruginosa KCCM 11328; conditions: 16 h, MH media
Description: as §1, §2

[3] = tested on: standard Gram-negative bacteria and carbapenem-resistant Gram-negative bacteria; experiment: Mean MIC over all bacterial strains (GM) and selective index; type: cell-based; conditions: all 19 bacterial strains of Table 2
Procedure: as §2

[4] = tested on: sheep red blood cells (sRBC); experiment: Hemolytic assay; type: cell-based; conditions: heparinized sheep red blood cells; 200 μM used when no detectable hemolysis at 100 μM
Procedure: The peptide-induced toxicity was determined by hemolytic against Sheep red blood cells (sRBC). Briefly, Fresh sRBC were washed at least three times with phosphate-buffered saline (PBS) and the debris were removed by centrifugation (1000× g for 5 min, 4 °C). All the peptides including melittin control (0.2–100 μM) and positive control (1% (v/v) triton X-100) were incubated with 4% (v/v) sRBC for 1 h at 37 °C followed by centrifugation at 1000× g for 5 min. The supernatant was measured at 405 nm using a microplate reader.

## CC[C@H](C)[C@H](NC(=O)CN)C(=O)NCC(=O)N[C@@H](C)C(=O)N[C@H](C(=O)N[C@@H](CC(C)C)C(=O)N[C@@H](CCCCN)C(=O)N[C@H](C(=O)N[C@@H](CC(C)C)C(=O)N[C@H](C(=O)N[C@H](C(=O)NCC(=O)N[C@@H](CC(C)C)C(=O)N1CCC[C@H]1C(=O)N[C@@H](C)C(=O)N[C@@H](CC(C)C)C(=O)N[C@H](C(=O)N[C@@H](CO)C(=O)N[C@@H](Cc1c[nH]c2ccccc12)C(=O)N[C@H](C(=O)N[C@@H](CCCCN)C(=O)N[C@@H](CCCNC(=N)N)C(=O)N[C@@H](CCCCN)C(=O)N[C@@H](CCCNC(=N)N)C(=O)N[C@@H](CCC(N)=O)C(=O)N[C@@H](CCC(N)=O)C(N)=O)[C@@H](C)CC)[C@@H](C)CC)[C@@H](C)O)[C@@H](C)O)C(C)C)C(C)C [Melittin, reference compound]
[1]
  Minimal Inhibitory Concentration (MIC): 8 µM
[2]
  Minimal Inhibitory Concentration (MIC): 16 µM
[3]
  GM (geometric mean of MIC values of all bacterial strains): 13.1 µM
[4]
  HC10 (peptide concentration inducing 10% hemolysis): 3.1 µM

From publication PMC8621208, “Antiseptic 9-Meric Peptide with Potency against Carbapenem-Resistant Acinetobacter baumannii Infection” (International Journal of Molecular Sciences, 2021)
